# Experiment: MTS score (Table 1; method not described)
# Type: cell-based
smiles,measurement,setting,value
Oc1c(Br)cc(C=NNc2nc3ccccc3s2)c(O)c1Br,MTS AVG 4 (No Effect),"average of the MTS scores at 10, 30 and 100 μM",1.333
same,MTS 10 μM,"score at nominal 10 μM, 4 = No Effect",1
same,MTS 30 μM,"score at nominal 30 μM, 4 = No Effect",2
same,MTS 100 μM,"score at nominal 100 μM, 4 = No Effect",1

# Reference: patent US20090176776A1, “SMALL MOLECULE INHIBITORS OF HIV-1 CAPSID ASSEMBLY” (UNIVERSITY OF ALABAMA AT BIRMINGHAM, priority 2005, published 2009)
